This test deals with T1, Cyclooxygenase (Rattus norvegicus, UniProt P35355+Q63921).
T1 sequence (P35355 whole entry): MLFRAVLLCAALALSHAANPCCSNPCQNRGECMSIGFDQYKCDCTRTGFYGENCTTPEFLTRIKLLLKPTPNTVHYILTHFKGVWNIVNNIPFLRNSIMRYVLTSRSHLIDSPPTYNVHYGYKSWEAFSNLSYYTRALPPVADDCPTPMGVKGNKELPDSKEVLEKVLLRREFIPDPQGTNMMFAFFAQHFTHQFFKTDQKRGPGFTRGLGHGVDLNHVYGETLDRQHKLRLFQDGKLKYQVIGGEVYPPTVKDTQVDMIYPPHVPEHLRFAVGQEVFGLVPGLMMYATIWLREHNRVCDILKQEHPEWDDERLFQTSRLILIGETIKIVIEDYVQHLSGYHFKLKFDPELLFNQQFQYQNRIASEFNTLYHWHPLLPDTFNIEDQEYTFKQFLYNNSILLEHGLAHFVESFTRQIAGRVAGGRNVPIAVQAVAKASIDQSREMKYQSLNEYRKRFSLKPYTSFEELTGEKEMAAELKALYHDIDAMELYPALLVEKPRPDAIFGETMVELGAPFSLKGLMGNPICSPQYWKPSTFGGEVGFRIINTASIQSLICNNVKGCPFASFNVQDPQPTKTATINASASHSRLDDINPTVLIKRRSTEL
T1 sequence (Q63921 whole entry): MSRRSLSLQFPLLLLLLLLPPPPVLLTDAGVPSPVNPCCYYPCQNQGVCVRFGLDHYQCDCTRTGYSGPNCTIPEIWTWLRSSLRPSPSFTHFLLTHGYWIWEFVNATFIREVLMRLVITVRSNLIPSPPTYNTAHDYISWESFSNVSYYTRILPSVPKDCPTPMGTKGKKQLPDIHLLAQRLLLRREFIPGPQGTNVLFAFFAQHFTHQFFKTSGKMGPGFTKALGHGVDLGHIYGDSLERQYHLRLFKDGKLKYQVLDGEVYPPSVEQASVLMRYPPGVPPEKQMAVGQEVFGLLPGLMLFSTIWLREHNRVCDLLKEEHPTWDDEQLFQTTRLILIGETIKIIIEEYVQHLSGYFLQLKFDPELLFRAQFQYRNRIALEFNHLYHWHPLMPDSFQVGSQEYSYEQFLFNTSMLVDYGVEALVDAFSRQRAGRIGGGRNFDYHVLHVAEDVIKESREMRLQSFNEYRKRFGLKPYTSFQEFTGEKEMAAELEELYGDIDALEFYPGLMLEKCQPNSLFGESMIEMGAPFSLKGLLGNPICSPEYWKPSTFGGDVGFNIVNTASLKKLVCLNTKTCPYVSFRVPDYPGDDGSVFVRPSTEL
Briefly: Inhibition of Prostaglandin G/H synthase mediated PGF2-alpha formation in rat basophilic leukemia (RBL-1) cells. It counts as cell-based.

The term IC50 denotes the concentration at which inhibition is half-maximal. The low end stands for higher potency, the high end for lower potency. For the molecule `FC(F)(F)c1cccc(Nc2ccccc2-c2n[nH]c(S)n2)c1`, the 50% inhibitory concentration (IC50) came to 0.51 µM.

The values above are taken from ChEMBL document CHEMBL1126717 (J Med Chem, 1993).
